Our source for the inhibition values is PubChem BioAssay AID588489 (Sanford-Burnham Center for Chemical Genomics, 2011).

The chains behind the UniProt entries cited, without tags or fusion partners.
UniProt P11940, whole entry: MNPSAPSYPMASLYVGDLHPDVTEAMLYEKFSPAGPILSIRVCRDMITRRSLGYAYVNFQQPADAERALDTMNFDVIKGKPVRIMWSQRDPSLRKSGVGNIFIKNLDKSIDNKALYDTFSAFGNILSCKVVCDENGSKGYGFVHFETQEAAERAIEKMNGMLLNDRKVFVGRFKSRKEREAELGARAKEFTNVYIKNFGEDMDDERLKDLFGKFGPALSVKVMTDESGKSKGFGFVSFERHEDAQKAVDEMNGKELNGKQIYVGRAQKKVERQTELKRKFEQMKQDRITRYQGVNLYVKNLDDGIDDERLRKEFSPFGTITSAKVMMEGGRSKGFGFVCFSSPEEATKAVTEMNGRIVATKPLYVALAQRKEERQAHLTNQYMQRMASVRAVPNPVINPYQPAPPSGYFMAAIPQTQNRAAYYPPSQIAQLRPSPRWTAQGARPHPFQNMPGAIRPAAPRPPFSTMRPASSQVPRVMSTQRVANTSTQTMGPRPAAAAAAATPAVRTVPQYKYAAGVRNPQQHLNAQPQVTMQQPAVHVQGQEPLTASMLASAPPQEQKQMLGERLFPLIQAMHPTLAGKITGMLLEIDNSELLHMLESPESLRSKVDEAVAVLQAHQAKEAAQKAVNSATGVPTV

The list shows a part of the results, in another mix than the full data. Activity calls are given as the source filed them. Cut-off read from the data, not from the text of the source: active = inhibition above about 35% (passing the limit was not always enough); inactive = the rest.

The experiment deals with Polyadenylate-binding protein 1 (Homo sapiens) (UniProt P11940). In words: PAM2 peptide displacement from PABP1 MLLE – biochemical, fluorescence polarization, FITC-PAM2, GST-MLLE, primary screen (AID 588489).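 Note: plate controls were DMSO wells with GST-MLLE for no effect and wells lacking GST-MLLE protein for full effect.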 Particulars: at 20 µM, active compounds read high.
By inhibition is commonly meant the relative decrease from the control value, in per cent. `CCC(=O)N(c1ccccc1)C1(COC)CCN(CCc2cccs2)CC1`: the inhibition was inactive: 2.83%. On to `CCC(=O)N(c1ccccc1)C1(COC)CCN(CCn2nnn(CC)c2=O)CC1`, for which the inhibition is inactive: 0.68%.
